Article PMC2747018

Target: U1-A protein of the native human U1 snRNP (human (endogenous in HeLa)) (UniProt P09012)
Test: native MS; nano ESI-MS of the intact U1 snRNP purified from HeLa cells, 200 mM ammonium acetate, Q-ToF2, collision cell 100 V; the complex holds U1 snRNA

stoichiometry N	Substance
1	Sm-B (from UniProt P14678-2 1-231) (natural protein; other documents disagree on this pair)
1	Sm-B' (from UniProt P14678 1-240) (natural protein; other documents disagree on this pair)
